Values quoted from earlier work, collected in patent US20260224588A1, “BENZODIAZEPINONE-DERIVED INHIBITORS OF EGFR AND HER2” (The Research Foundation for the State University of New York, priority 2023, published 2026).

Amino acid sequences for entries named in this document (tags omitted). Residues count along the entry.
UniProt P00533, 696-1022 limits assumed: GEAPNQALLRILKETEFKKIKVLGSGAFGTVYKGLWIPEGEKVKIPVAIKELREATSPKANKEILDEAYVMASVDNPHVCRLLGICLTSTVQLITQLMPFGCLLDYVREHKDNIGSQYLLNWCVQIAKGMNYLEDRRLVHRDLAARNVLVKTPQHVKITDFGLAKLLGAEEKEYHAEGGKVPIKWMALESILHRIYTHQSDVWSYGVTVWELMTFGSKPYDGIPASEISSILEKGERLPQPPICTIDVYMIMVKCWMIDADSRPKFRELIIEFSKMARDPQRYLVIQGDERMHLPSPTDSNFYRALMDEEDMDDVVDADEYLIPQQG

Columns and labels:
[1] = system: wildtype EGFR Ba/F3 cells; details: read-out: Anti-proliferative EC50 ± SE, wt, from literature (footnotes a, c); cited from earlier work
[2] = system: L858R EGFR mutant Ba/F3 cells; details: read-out: Anti-proliferative EC50 ± SE, LR, from literature (footnotes a, c); cited from earlier work
WT EGFR kinase domain = WT EGFR kinase domain (Homo sapiens, UniProt P00533); details: read-out: Biochemical EGFR IC50, wt; from De Clercq and Heppner et al. 2019; cited from earlier work

C=CC(=O)Nc1ccc(OC)c(Nc2cc(-c3[nH]c(SC)nc3-c3ccc(F)cc3)ccn2)c1
EC50 [1]: 20 nM | EC50 [2]: < 1 nM

O=C1c2cc(F)ccc2Nc2ccccc2N1Cc1ccccc1
IC50 (WT EGFR kinase domain): > 1000 nM
